# Assay results published in PubChem BioAssay AID588334 (Broad Institute, 2011).
# Only a part is listed here, and it is no random draw. Active and inactive are the calls of the source.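 How the source made its calls: active means mean activation of at least 80% with every replicate also reaching 80%; inconclusive means mean reaches 80% but some replicate falls short; inactive means the rest.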
# Experiment: MITF-driven TRPM1 luciferase induction in melanoma cells – cell-based, SK-MEL-5, single point, primary screen (AID 588334);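 further: 0% = neutral control wells and 100% = parthenolide positive control wells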
# Settings: SK-MEL-5 TRPM1-promoter luciferase, 24 h; at 12.5 µM; hits give high values; % of positive control, neutral wells = 0
row,SMILES,activation
1,O=C(NCC1(N2CCCCC2)CCCCC1)c1cccc(C(F)(F)F)c1,inactive: 2.67%
2,COc1ccc(NC2CCN(C(=O)OC(C)(C)C)CC2)cc1,inactive: -5.19%
3,CC(C)c1ccc(C(=O)NCC2(N3CCOCC3)CCCCC2)cc1,inactive: 35.5%
4,CN1CCN(CCOC(=O)C(O)(c2ccccc2)c2ccccc2)CC1,inactive: -5.2%
5,O=C(NCC1(N2CCOCC2)CCCCC1)c1cc(=O)[nH]c2ccccc12,inactive: -4.53%
6,COc1cc(C(=O)NCC2(N3CCCCC3)CCCCC2)ccc1OC(F)F,inactive: 7.53%
7,O=C(NCC1(N2CCCCC2)CCCCC1)c1ccc(OC(F)F)cc1,inactive: 19.1%
8,O=C(NCC1(N2CCCCC2)CCCCC1)c1cccc([N+](=O)[O-])c1,inactive: -6.18%
9,CSc1ccc(C(=O)NCC2(N3CCOCC3)CCCCC2)cc1,inactive: 12.2%
10,N#CC1(Nc2ccccc2)CCN(CCc2ccccc2)CC1,inactive: 0.155%
11,O=C(NCC1(N2CCCCC2)CCCCC1)c1cncc(Br)c1,inactive: 5.03%
12,CN1CCC(Nc2cccc(F)c2)CC1,inactive: 6.62%
13,CCCOc1ccc(C(=O)NCC2(N(C)C)CCCCC2)cc1OC,inactive: -8.59%
14,CN(C)c1cccc(C(=O)NCC2(N3CCCCC3)CCCCC2)c1,inactive: 0.897%
15,COc1ccc(CN(CCCl)CCCl)cc1Cl,inactive: -8.85%
16,CC(C)c1ccc(NC2CCN(C(=O)OC(C)(C)C)CC2)cc1,inactive: 50.1%
17,O=C(NCC1(N2CCOCC2)CCCCC1)c1cc(F)c(F)cc1Cl,inactive: 1.35%
18,COc1cc(OC)c(C(=O)NCC2(N(C)C)CCCCC2)cc1OC,inactive: -4.97%
19,O=C(NCC1(N2CCOCC2)CCCCC1)c1cc2ccccc2o1,inactive: -7.81%
20,Cc1cc(C)cc(N(C(=O)c2ccccc2)C2CCN(C(=O)OC(C)(C)C)CC2)c1,inactive: -21%
21,O=C(NCC1(N2CCCCC2)CCCCC1)c1ccc(Cl)nc1,inactive: 12.5%
22,CCOC(=O)N1CCC(Nc2ccc(OC)cc2)CC1,inactive: -8.41%
23,COc1ccc(Cl)cc1C(=O)NCC1(N2CCOCC2)CCCCC1,inactive: -4.87%

row,SMILES,activation
1,O=C(OC1CN2CCC1CC2)C1c2ccccc2Oc2ccccc21 (configuration not stated),inactive: 2.77%
2,O=C(NCC1(N2CCCCC2)CCCCC1)c1ccc(Cl)s1,inactive: 8.68%
3,N#CC1(Nc2ccccc2)CCN(Cc2ccccc2)CC1,inactive: 0.827%
4,O=C(NCC1(N2CCCCC2)CCCCC1)c1cccs1,inactive: 12.7%
5,O=C(NCC1(N2CCCCC2)CCCCC1)c1ccc(=O)[nH]c1,inactive: 12.6%
6,COc1ccc(C(=O)NCC2(N3CCCCC3)CCCCC2)c(OC)c1OC,inactive: -12.3%
7,CC(C)(C)OC(=O)N1CCC(N(C(=O)c2ccccc2)c2ccc(F)cc2)CC1,inactive: -6.79%
8,COc1ccc(C(=O)NCC2(N3CCCCC3)CCCCC2)cc1,inactive: 14.1%
9,Cc1cccc(NC2(C#N)CCN(Cc3ccccc3)CC2)c1,inactive: -2.35%
10,CSc1ccccc1C(=O)NCC1(N2CCCCC2)CCCCC1,inactive: 1.88%
11,COc1cc(C(=O)NCC2(N(C)C)CCCCC2)ccc1OC(F)F,inactive: 0.884%
12,CCOc1ccc(C)cc1CN(CCCl)CCCl,inactive: -11.1%
13,O=C1CCN(Cc2ccccc2)CC1,inactive: 4.11%
14,CCOC(=O)N1CCC(Nc2ccc(F)cc2)CC1,inactive: -0.507%
15,COc1ccc(NC2CCN(CCc3ccccc3)CC2)c(OC)c1,inactive: -3.34%
16,O=C(NCC1(N2CCCCC2)CCCCC1)c1ccc(F)cc1,inactive: -3.36%
17,CCCCOc1ccc(C(=O)NCC2(N3CCOCC3)CCCCC2)cc1,inactive: 9.01%
18,O=P1(N(CCCl)CCCl)SCCCS1,inactive: -4.61%
19,CCN1CCC(Nc2cccc(F)c2)CC1,inactive: 3.37%
20,Cc1ccccc1NC1(C#N)CCN(Cc2ccccc2)CC1,inactive: 12.4%
21,Cn1c(=O)[nH]cc(N(CCCl)CCCl)c1=O,inactive: -7.8%
22,CN(C)c1ccc(C(=O)NCC2(N3CCCCC3)CCCCC2)cc1,inactive: 12.8%
23,O=C(NCC1(N2CCCCC2)CCCCC1)c1ccco1,inactive: 11%

row,SMILES,activation
1,CC(=O)N(c1ccccc1)C1CCNCC1,inactive: -2.3%
2,Cc1ccc(NC2(C#N)CCN(Cc3ccccc3)CC2)cc1,inactive: 1.33%
3,Fc1ccccc1NC1CCN(Cc2ccccc2)CC1,inactive: 7.7%
4,Cc1ccc(C(=O)NCC2(N3CCCCC3)CCCCC2)o1,inactive: -1.55%
5,CCC(CO)(C(=O)OC1CN2CCC1CC2)c1ccccc1 (configuration not stated),inactive: 1.98%
6,COc1cccc(C(=O)N(c2cc(C)cc(C)c2)C2CCN(C(=O)OC(C)(C)C)CC2)c1,inactive: -0.872%
7,COc1cc(OC)cc(C(=O)NCC2(N3CCOCC3)CCCCC2)c1,inactive: 0.148%
8,CCOc1ncccc1C(=O)NCC1(N2CCOCC2)CCCCC1,inactive: -4.66%
9,CCCOc1ccc(C(=O)NCC2(N(C)C)CCCCC2)cc1,inactive: -7.76%
10,O=C(O)C1(Nc2ccccc2)CCN(Cc2ccccc2)CC1,inactive: -7.15%
11,CC(C)(C)OC(=O)N1CCC(Nc2ccccc2)CC1,inactive: 8.22%
12,N/C(=N\O)c1c(N)no[n+]1[O-],inactive: -4.52%
13,O=C(OC1CN2CCC1CC2)C1c2ccccc2C=Cc2ccccc21 (configuration not stated),inactive: -1.56%
14,O=C(NCC1(N2CCOCC2)CCCCC1)c1cc(Br)ccc1Cl,inactive: 8.86%
15,COc1cc(C(=O)NCC2(N3CCOCC3)CCCCC2)cc(OC)c1C,inactive: 8.85%
16,COc1ccc(C(=O)NCC2(N3CCOCC3)CCCCC2)cc1OC,inactive: 9.63%
17,CCCN1CCC(Nc2cc(OC)cc(OC)c2)CC1,inactive: -4.33%
18,c1ccc(CN2CCC(Nc3ccccc3)CC2)cc1,inactive: -1.47%
19,CN(C)C1(CNC(=O)c2cccc(C#N)c2)CCCCC1,inactive: 0.535%
20,CC(C)(C)OC(=O)N1CCC(N(C(=O)c2ccccc2)c2ccc(Cl)cc2)CC1,inactive: -4.03%
21,N#Cc1ccc(C(=O)NCC2(N3CCCCC3)CCCCC2)cc1,inactive: 2.9%
